Data reported in PubChem BioAssay AID1645870 (National Center for Advancing Translational Sciences (NCATS), 2021).
The list shows a part of the results, in another mix than the full data. Inconclusive results are not listed. The source made the active and inactive calls. Calls follow the shape of the dose curve; as a rule, active = well fitted inhibition curve with a large enough effect; inconclusive = small, poorly fitted or top-dose-only effect; inactive = flat fitted curve, though single readings scatter.
Also: nearly all actives have a fitted effect of over 65% in size.
Potency is read from the fitted curve at half-maximal effect.

Chains of the proteins cited; added tags and fusions are not shown.
UniProt Q9BV86, whole entry: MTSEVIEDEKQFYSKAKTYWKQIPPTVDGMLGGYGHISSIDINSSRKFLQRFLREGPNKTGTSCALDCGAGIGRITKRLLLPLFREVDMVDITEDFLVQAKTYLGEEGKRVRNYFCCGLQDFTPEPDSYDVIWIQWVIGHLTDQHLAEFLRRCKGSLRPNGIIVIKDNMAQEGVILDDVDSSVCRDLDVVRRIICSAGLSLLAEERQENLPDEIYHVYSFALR

Each compound was assayed against N-terminal Xaa-Pro-Lys N-methyltransferase 1 (Homo sapiens) (UniProt Q9BV86) (assay: Primary qHTS for Inhibitors of N-terminal methyltransferase 1 (NTMT1): MTaseGlo Assay). Details: NTMT1 MTase-Glo SAH luminescence, purified enzyme; series mostly up to 114 µM; activity change, negative = inhibition: at the top concentration.
Source text: Assay Submitter (PI): Rong Huang Ph.D.
Purdue University, West Lafayette, IN 47907
The N-terminal methytransferase 1 is the first methyltransferase that methylates protein alpha-N-amines and plays an important role in regulating cell mitosis, chromatin interactions and DNA repair. It is observed to be over-expressed in various cancer patient tissues like malignant melanoma and colorectal cancer tissues. Knockdown of NTMT1 in cancer cells causes cell mitotic defects and enhances sensitivity to DNA damaging chemotherapeutics. […] These critical cellular processes in which NTMT1 is implicated, coupled with emerging links to cellular dysfunction, strengthen the inference that NTMT1 is a compelling novel anticancer target. Progress have been made in understanding the molecular properties of NTMT1 and the biological consequences of protein alpha-N-terminal methylation, but there are no specific small molecule probes available for NTMT1 to fully characterize its MTase activity. To address this unmet need, a panel of assay is created and established to enable quantitative high-throughput screening (qHTS) for novel, potent, and selective small molecule NTMT1 inhibitors. Two orthogonal qHTS that use different reagents (ThioGlo vs. MTaseGlo) are developed for primary robotic screening against the NCATS chemical library of more than 400,000 small molecules. Identified inhibitors are reacquired, validated, and further characterized.
MTaseGlo Assay is a luminescence screen that measure the activity of methyltransferases based on the reaction product S-adenosyl homocysteine (SAH). The substrate SAM is converted to SAH upon enzyme activation. MTase-Glo reagent and detection solution convert SAH to ATP and measure the light from the luciferase reaction.
Materials: NTMT1 enzyme, substrate SPKRIA, control peptide RCC1-6 is provided by the Huang laboratory.
SEQUENCE No. (e.g., 1, 2, 3, etc.); […] (e.g., Cells, Incubation, Reagent, etc.); VALUE; DESCRIPTION
1; Enzyme; 3 uL; Dispense enzyme mixture (final concentrations of 125 nM NTMT1 and 100 uM SAM) into Greiner 1536-well white / solid bottom assay plate (Greiner Bio One, Monroe, NC).
2; Compounds; 23 nL; Compounds and controls were transferred via a Kalypsys Pin Tool (Wako USA) equipped with a 1536-slotted pin array (Wako Automation, Richmond, VA)
3; Incubation; 15 min; Incubate at room temperature
4; Substrate; 1 uL; Dispense 1 uL of substrate at final concentration of 1 uM. Buffer solution was dispensed in control wells. The assay plate was covered with metal lids.
5; Incubation; 30 min; Incubate at room temperature, protected from lights.
6; Reagent; 1 uL; Dispensed 5x MTase-Glo detection reagent (R) into the assay plate. The plate was covered with metal lids.
7; Incubation; 30 min; Incubate the assay plates at room temperature in the dark to allow for SAH to be converted to ADP.
8; Reagent; 5 uL; Dispense 5 uL of 1x MTase-Glo Detection Solution (R) to allow for ADP to be converted to ATP which was then detected with a luciferase reaction.
9; Centrifuge; 15 sec; Centrifuge the assay plate for 15 seconds at 1000 RPM.
10; Incubation; 30 min; Assay plates were incubation at room temperature in the dark.
11; Detection; Luminescence; Plates were read on ViewLux detector (PerkinElmer). Data were normalized to no-enzyme (0% activity) and no-inhibitor (DMSO; 100%) controls, and the resulting percent inhibition data were fitted to a 4-parameter Hill equation using GraphPad Prism.
In the case of `CCOC(=O)C(=O)CBr`, the Potency is reported as active: 79.4 µM. In the case of `COc1ccccc1C(=O)NCC1(N2CCOCC2)CCCCC1`, the “activity change, negative = inhibition” value is reported as inactive: 8.19%. With `O=C(NCC1(N2CCOCC2)CCCCC1)c1ccc(Cl)cc1` the “activity change, negative = inhibition” value was inactive: 6.73%. For `CCOC(=O)N1CCC(=O)CC1`, the “activity change, negative = inhibition” value was inactive: 17.9% [at 57.5 µM]. `O=C(NCC1(N2CCOCC2)CCCCC1)c1ccccc1Br` was tested, and the “activity change, negative = inhibition” value was inactive: -0.307%. For `CCCCOc1ccccc1C(=O)NCC1(N2CCOCC2)CCCCC1`, the “activity change, negative = inhibition” value was inactive: 5.2%. In the case of `CCCOc1cccc(C(=O)NCC2(N3CCOCC3)CCCCC2)c1`, the “activity change, negative = inhibition” value is reported as inactive: 12.1%. In the case of `CCOc1ccc(C(=O)NCC2(N3CCOCC3)CCCCC2)cc1`, the “activity change, negative = inhibition” value is reported as inactive: 6.68%. With `O=C(NCC1(N2CCOCC2)CCCCC1)c1ccccc1` the “activity change, negative = inhibition” value was inactive: 3.09%. In the case of `O=C(NCC1(N2CCOCC2)CCCCC1)c1ccc([N+](=O)[O-])cc1`, the “activity change, negative = inhibition” value is reported as inactive: -1.86%. `O=C(NCC1(N2CCOCC2)CCCCC1)c1ccccc1[N+](=O)[O-]` was tested, and the “activity change, negative = inhibition” value was inactive: 17%. For `COc1cc(C(=O)NCC2(N3CCOCC3)CCCCC2)cc(OC)c1OC`, the “activity change, negative = inhibition” value was inactive: 2.5%. `CC(C)(C)c1ccc(C(=O)NCC2(N3CCOCC3)CCCCC2)cc1` was tested, and the “activity change, negative = inhibition” value was inactive: 4.09%. In the case of `Cc1ccccc1C(=O)NCC1(N(C)C)CCCCC1`, the “activity change, negative = inhibition” value is reported as inactive: 8.94%. `CC(=O)N1CCc2ccc(N(C(=O)/C=C/c3cccc(C#N)c3)C3CCN(CCC4CCCC4)CC3)cc21` was tested, and the “activity change, negative = inhibition” value was inactive: 4.5% [at 57.5 µM]. `CN(C)C1(CNC(=O)c2ccc(C(C)(C)C)cc2)CCCCC1` was tested, and the “activity change, negative = inhibition” value was inactive: 4.69%.
